pIC50: −log10 of the molar value.

Sequences of proteins named here, by UniProt entry; tags and fusion partners are left off. A change or cut given only in a name is not applied to a line headed by its entry.
UniProt O60760: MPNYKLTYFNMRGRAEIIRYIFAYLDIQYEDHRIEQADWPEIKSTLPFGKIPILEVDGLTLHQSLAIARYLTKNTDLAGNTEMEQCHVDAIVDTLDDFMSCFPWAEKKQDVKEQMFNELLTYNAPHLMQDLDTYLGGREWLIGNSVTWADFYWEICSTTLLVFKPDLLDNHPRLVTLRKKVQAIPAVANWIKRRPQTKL

The term pIC50 denotes the IC50 on a negative log10 scale, so that one unit is a factor of ten.

The experiment addresses Hematopoietic prostaglandin D synthase (Homo sapiens, UniProt O60760). As to the kind of experiment: Inhibition of human recombinant HPGDS using PGH2 as substrate assessed as production of PGD2 preincubated for 10 mins prior substrate addition measured after 42 secs by TBA-based fluorescence assay.

As to `NCc1ccc2ccccc2c1-c1ccc(C(=O)NCCN2CCOCC2)cc1`, the pIC50 was 6.07.

These data come from ChEMBL document CHEMBL2034964, “Investigation of the binding pocket of human hematopoietic prostaglandin (PG) D2 synthase (hH-PGDS): a tale of two waters” (Bioorg Med Chem Lett, 2012).
